Data on 1 compound can be found in patent publication US12606568B2, “SMARCA degraders and uses thereof” (Kymera Therapeutics, Inc., priority 2020, dated 2026).

Chains of the proteins cited; added tags and fusions are not shown.
UniProt P51531, whole entry: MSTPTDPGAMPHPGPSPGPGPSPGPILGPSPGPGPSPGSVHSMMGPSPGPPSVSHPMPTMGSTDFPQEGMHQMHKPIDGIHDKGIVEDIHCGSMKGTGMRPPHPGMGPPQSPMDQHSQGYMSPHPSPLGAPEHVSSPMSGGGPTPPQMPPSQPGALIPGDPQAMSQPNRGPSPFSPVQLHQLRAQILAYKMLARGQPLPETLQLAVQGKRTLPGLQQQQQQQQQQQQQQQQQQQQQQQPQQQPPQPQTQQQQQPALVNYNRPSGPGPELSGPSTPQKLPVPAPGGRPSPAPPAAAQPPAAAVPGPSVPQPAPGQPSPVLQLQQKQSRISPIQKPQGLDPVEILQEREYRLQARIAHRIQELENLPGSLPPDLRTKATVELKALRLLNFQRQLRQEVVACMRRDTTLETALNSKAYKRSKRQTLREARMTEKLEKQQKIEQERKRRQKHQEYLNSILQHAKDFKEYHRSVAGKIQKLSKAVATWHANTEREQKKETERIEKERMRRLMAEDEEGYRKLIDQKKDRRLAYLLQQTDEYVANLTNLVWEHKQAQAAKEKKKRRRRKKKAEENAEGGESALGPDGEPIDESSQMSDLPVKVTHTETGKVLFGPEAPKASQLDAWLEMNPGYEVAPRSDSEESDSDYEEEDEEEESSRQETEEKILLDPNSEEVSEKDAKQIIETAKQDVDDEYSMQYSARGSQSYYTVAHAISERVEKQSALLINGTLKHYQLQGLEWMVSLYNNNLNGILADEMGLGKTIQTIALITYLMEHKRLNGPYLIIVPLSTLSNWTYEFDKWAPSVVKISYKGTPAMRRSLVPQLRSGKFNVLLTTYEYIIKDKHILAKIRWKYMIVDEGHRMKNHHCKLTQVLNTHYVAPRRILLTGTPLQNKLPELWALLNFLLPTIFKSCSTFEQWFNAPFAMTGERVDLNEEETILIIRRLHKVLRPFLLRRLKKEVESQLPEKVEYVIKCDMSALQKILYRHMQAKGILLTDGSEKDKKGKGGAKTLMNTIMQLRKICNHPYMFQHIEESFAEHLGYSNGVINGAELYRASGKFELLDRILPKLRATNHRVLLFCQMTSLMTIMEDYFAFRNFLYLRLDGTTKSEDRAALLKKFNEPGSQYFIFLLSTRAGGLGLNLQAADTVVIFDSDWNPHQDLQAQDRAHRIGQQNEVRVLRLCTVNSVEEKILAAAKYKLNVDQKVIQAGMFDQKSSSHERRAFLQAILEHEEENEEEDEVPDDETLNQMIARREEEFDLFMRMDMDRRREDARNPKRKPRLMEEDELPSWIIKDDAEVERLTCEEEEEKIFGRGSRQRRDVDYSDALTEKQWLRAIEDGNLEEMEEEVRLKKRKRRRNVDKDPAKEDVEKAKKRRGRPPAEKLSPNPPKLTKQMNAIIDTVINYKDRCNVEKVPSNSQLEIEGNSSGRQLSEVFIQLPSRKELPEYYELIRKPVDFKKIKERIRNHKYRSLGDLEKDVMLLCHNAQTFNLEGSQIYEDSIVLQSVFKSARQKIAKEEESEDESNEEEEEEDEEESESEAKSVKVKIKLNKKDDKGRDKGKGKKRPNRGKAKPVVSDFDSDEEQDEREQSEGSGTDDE

In the test the target is SMARCA2 (Homo sapiens, UniProt P51531). Put plainly: SMARCA2 Western blot MV4-11 degradation. As to the method:
Example 54. SMARCA2 and SMARCA 4 Western Blot MV4-11 Degradation
Cells were seeded into 6-well plates (MV4-11: 4×10^6 cells/well/1 ml) and 1 ml of 2× compound solution was added into the well to make the final concentration and the plates were mixed well and incubated for 24 hours (No cytotoxicity was observed). The cell were collected with media and spun at 3000 rpm for 5 minutes. The supernatant was aspirated and the well and the cells were washed with cold PBS once and combined for centrifugation again; the supernatant aspirated again. 200 ul pre-chilled RIPA lysis buffer (Boston BioProducts BP-115D) with protease/phosphatase inhibitor (Roche 05892791001/Roche 04906837001) was directly added into the tube to lyze the cells for 20 minutes on ice. The cell lysate were collected into EP tubes and spun at 13000 rpm for 20 minutes and 72 ul supernatant was transferred to a fresh EP tube containing 18 ul of 5× loading buffer (Beyotime Bio P0015) to make the loading samples. The samples were heated to 100° C. for 10 minutes and cooled to RT and microcentrifuged. 20 ul of samples were loaded onto SDS-PAGE gel (Novex, WG1402BOX) and the gel was run at 80 V for 20 minutes and 120 V for 1.5 hours. The samples were electrotransfer to a NC membrane using wet-transfer method with 250 mA for 2.5 hours. […] The membrane was washed three times with TBST, 5 minutes each and lastly the LiCOR was read. […]

Some results are limits rather than exact numbers.

On to `Cc1ncsc1-c1ccc(CNC(=O)[C@@H]2C[C@@H](O)CN2C(=O)[C@@H](NC(=O)C2(F)CC2)C(C)(C)C)c(O[C@H]2CC[C@@H](N3CCC(c4cnc(N5C6CCC5CN(c5cc(-c7ccccc7O)nnc5N)C6)nc4)CC3)CC2)c1`, for which the “SMARCA2 MSD MV411 degradation 24 h: average Dmax %” value (MV4-11 cells) was “A (A (>90% degradation))”. Besides, the DC50 (read-out: SMARCA2 MSD MV411 degradation 24 h: Mean external-Abs DC50, MV4-11 cells) was under 100 nM.
